Protein sequences, listed by entry. Tags and fused reporters are not part of them. Lines headed by an entry give the natural chain unless they say otherwise; changes in a name come on top.
UniProt P48736: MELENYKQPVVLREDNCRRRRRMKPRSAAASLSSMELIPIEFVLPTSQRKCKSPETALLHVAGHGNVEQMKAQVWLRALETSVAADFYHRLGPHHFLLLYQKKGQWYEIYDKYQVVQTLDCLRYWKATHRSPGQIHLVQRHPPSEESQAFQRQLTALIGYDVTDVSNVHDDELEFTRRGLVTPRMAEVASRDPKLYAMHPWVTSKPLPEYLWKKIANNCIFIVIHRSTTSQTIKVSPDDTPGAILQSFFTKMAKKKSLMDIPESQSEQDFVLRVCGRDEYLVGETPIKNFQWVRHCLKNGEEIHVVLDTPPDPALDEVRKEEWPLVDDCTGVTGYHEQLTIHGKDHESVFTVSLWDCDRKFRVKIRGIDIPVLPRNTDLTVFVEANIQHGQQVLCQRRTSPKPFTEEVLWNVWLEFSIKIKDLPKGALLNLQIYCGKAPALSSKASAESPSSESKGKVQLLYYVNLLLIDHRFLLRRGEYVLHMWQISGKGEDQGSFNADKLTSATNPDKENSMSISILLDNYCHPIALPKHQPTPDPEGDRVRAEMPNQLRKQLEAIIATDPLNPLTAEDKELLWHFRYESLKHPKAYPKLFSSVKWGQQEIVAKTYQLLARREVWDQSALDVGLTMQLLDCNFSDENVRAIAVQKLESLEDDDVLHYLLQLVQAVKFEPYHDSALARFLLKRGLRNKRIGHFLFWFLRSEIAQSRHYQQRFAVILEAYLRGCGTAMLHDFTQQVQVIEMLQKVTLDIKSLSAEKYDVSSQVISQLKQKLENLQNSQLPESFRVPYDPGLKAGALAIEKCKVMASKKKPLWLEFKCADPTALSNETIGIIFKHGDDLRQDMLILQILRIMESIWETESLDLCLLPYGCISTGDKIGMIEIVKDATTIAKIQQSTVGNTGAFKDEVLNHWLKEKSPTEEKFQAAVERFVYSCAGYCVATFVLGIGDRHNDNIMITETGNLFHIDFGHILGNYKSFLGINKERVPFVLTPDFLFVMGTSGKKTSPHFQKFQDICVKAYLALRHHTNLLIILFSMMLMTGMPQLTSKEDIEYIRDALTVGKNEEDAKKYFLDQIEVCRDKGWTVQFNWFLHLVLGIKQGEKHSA

In ChEMBL document CHEMBL3392967, “Phosphatidylinositol 3-Kinase (PI3K) and phosphatidylinositol 3-kinase-related kinase (PIKK) inhibitors: importance of the morpholine ring” (J Med Chem, 2015):

Target: Phosphatidylinositol 4,5-bisphosphate 3-kinase catalytic subunit gamma isoform (Homo sapiens, UniProt P48736)

pIC50: 4.92
SMILES: O=c1cc(N2CCOCC2)oc2c(-c3ccccc3)cccc12 [LY-294002]

pIC50: −log10 of the molar value.
